For assay [1], the target named is Amine oxidase [flavin-containing] B (Homo sapiens, UniProt P27338). The assay can be described thus: Inhibition of human recombinant MAO-B expressed in baculovirus-infected BTI cells using benzylamine as substrate preincubated with enzyme for 15 mins followed by substrate addition and measured after 20 mins by Amplex Red reagent based fluorescence analysis.
The species entered for another assay is Homo sapiens. The assay can be described thus: Selectivity index, ratio of IC50 for inhibition of human recombinant MAO-A to IC50 for inhibition of human recombinant MAO-B expressed in baculovirus-infected BTI cells.

Amino acid sequences for entries named in this document (tags omitted).
UniProt P27338, whole entry: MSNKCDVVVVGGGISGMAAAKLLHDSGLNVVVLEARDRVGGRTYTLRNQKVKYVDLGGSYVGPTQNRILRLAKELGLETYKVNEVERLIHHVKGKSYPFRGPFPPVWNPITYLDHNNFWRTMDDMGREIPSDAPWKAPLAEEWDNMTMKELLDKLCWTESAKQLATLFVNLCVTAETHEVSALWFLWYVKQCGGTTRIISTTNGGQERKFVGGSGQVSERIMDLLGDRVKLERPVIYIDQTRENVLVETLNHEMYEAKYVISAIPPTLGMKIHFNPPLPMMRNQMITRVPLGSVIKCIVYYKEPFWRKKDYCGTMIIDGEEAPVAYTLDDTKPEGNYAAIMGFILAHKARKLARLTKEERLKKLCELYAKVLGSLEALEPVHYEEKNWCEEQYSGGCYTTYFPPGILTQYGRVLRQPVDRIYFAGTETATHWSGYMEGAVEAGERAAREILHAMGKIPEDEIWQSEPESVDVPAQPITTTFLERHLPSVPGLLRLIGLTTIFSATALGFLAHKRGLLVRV

The term IC50 denotes the concentration needed to halve the response being measured. As for `O=C1/C(=C/c2ccc(O)cc2)Oc2cc(O)ccc21`, the half-maximal inhibitory concentration (IC50) in assay [1] was above 10 µM. Also, the Ratio IC50 in the assay listed under Homo sapiens is below 0.53.

Values taken from ChEMBL document CHEMBL5576105, “Synthesis and biological evaluation of O4'-benzyl-hispidol derivatives and analogs as dual monoamine oxidase-B inhibitors and anti-neuroinflammatory agents” (Bioorg Med Chem, 2024).
